The values below come from patent US20200040085A1.

The target of this experiment is recombinant HLA-DQ2.5/33 mer gliadin peptide (human). The experiment in a line: bead-based flow cytometry: HLA-DQ2.5/33 mer gliadin peptide on streptavidin beads, antibody titrated, blocking of D2 TCR tetramer-PE binding [panel DQ2.5/D2 TCR neutralization]. In general terms: A flow cytometer gives signals particle by particle.

For DQN0139 (antibody), the IC50 (read off the curve) is 0.04 mg/L.

For the substance DQN0016 (antibody), the IC50 (read off the curve) was found to be 0.04 mg/L.

Regarding DQN0157 (antibody), the IC50 (read off the curve) is 0.02 mg/L.
